In PubChem BioAssay AID652010 (The Scripps Research Institute Molecular Screening Center, 2013) one finds inhibition data, which are given here for 74 compounds.

Structures are written as SMILES. Only a part is listed here, and it is no random draw. Active and inactive are the calls of the source.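 How the source made its calls: active means inhibition above the mean over all tested compounds plus 3 SD (cut at about 3.6% in these data); inactive means the rest.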

This assay in a line: DAX1 (NR0B1) inhibitors on StAR promoter, primary screen, cell-based, luminescence, SF-1 (NR5A1), full-length DAX-1 (AID 652010).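 Further: 0% = DAX-1 cells with DMSO and 100% = cells lacking DAX-1 with DMSO; higher inhibition means more luminescence from relief of DAX-1 repression.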 To be noted: HEK293T StAR-luciferase reporter, SF-1/DAX-1 repression relief; at 6.8 µM; hits give high values. In general terms: Reporter assays use an easily measured gene product as a stand-in for the process of interest.
What is called inhibition is the relative decrease from the control value, in per cent. For `O=[N+]([O-])c1cc(Oc2ccc([N+](=O)[O-])cc2C(F)(F)F)cc([N+](=O)[O-])c1`, the inhibition was inactive: -3.23%.

As to `Cc1cc(=O)[nH]c(N[N+](=O)[O-])n1`, the inhibition was inactive: 0.53%.

On to `O=C(OC1CN2CCC1CC2)C12CC3CC(CC(C3)C1)C2` (centres undefined), for which the inhibition was inactive: -0.37%.

For the compound `Cc1c2c(nc3ccccc13)SC(C(Cl)Cl)C2` (centres undefined), the inhibition was inactive: 0.36%.

As to `COc1cc(I)ccc1[As](=O)(O)O`, the inhibition was inactive: -0.5%.

Take `COc1ccc2nc(NP(=O)(c3ccccc3)c3ccccc3)sc2c1`: the inhibition was inactive: 0.08%.

In the case of `O=P1(N(CCCl)CCCl)Nc2ccccc2N1`, the inhibition was inactive: 3.43%.

As for `O=P1(N(CCCl)CCCl)OCCCN1CCCl` (centres undefined), the inhibition is inactive: -0.17%.

Regarding `CCOC(=O)c1ccc(NC(=O)C(C)(CCl)SC)cc1` (centres undefined), the inhibition is inactive: 0.54%.

With `O=C(OC1CN2CCC1CC2)c1cccc([N+](=O)[O-])c1` (centres undefined), the inhibition was inactive: 0.17%.

For the compound `CCC(C)N(CC(C)C)C(=S)SC(NC(C)=O)C(Cl)(Cl)Cl` (centres undefined), the inhibition was inactive: 0.07%.

Turning to `COC(=O)C1(C)COP(=O)(N2CCCC2)OC1` (centres undefined), the inhibition is inactive: 1.08%.

In the case of `COP1(=S)c2c(C)nn(CCC#N)c2N=C(c2ccc(F)cc2)N1C` (centres undefined), the inhibition was inactive: 0.52%.

For `O=C(Nc1ccncc1[N+](=O)[O-])c1ccc([N+](=O)[O-])cc1[N+](=O)[O-]`, the inhibition was inactive: -0.7%.

For `O=C(COc1ccccc1)OC1CN2CCC1CC2` (centres undefined), the inhibition was inactive: -0.03%.

For `O=C(O)C(=O)c1ccc(N(CCCl)CCCl)cc1`, the inhibition is inactive: -0.71%.

For `CCOC(=O)Nc1cccc([As](=O)(O)O)c1`, the inhibition was inactive: -0.13%.

Regarding `O=[N+]([O-])c1ccc(Nc2ccc(Oc3ccc([N+](=O)[O-])cc3[N+](=O)[O-])cc2)c([N+](=O)[O-])c1`, the inhibition was inactive: -0.33%.

Regarding `O=P(Nc1ccccn1)(c1cccc2ccccc12)c1cccc2ccccc12`, the inhibition was inactive: -0.59%.

In the case of `Cc1cc(SC(NC=O)C(Cl)(Cl)Cl)ncn1` (centres undefined), the inhibition is inactive: -0.19%.

Consider `CC1CCNP(=O)(N(CCCl)CCCl)O1` (centres undefined), for which the inhibition is inactive: 0.95%.

For `CCOC(=O)Nc1ccc([As](=O)(O)O)c(O)c1`, the inhibition is inactive: -0.15%.

In the case of `O=C(O)C(O)c1ccc(N(CCCl)CCCl)cc1` (centres undefined), the inhibition was inactive: -0.06%.

Regarding `Cc1cc(SC(NC(=O)c2ccccc2)C(Cl)(Cl)Cl)nc(C(C)C)n1` (centres undefined), the inhibition is inactive: -0.58%.

On to `CCCCOc1ccc(C(=O)NCC2(N3CCCCC3)CCCCC2)cc1OC`, for which the inhibition was inactive: 1.43%.

On to `COP(=O)(OC)N1CC1c1ccccc1` (centres undefined), for which the inhibition was inactive: 0.11%.

With `O=P1(Nc2ncccn2)COc2ccccc2OC1`, the inhibition was inactive: 0.22%.

Turning to `Cc1ccc(S(=O)(=O)N(CCCN)CCCc2c(C)nc(N)[nH]c2=O)cc1`, the inhibition was inactive: 0.53%.

On to `O=P1(Nc2ccc(Br)cn2)COc2ccccc2OC1`, for which the inhibition is inactive: -1.19%.

Regarding `NS(=O)(=O)c1cccc(NC(=O)COC(=O)C(O)(c2ccccc2)c2ccccc2)c1`, the inhibition was inactive: -1.53%.

On to `O=[As](O)(c1cccs1)c1cccs1`, for which the inhibition was inactive: -0.05%.

As for `Cc1ccc(OCC(=O)OC2CN3CCC2CC3)cc1` (centres undefined), the inhibition is inactive: -0.23%.

For `Nc1cccc([As](=O)(O)c2ccccc2)c1`, the inhibition is inactive: 0.84%.

Consider `CC1CCC(C(C)C)C(OP(=O)(Nc2ccccn2)c2ccccc2)C1` (centres undefined), for which the inhibition is inactive: -0.35%.

Regarding `Cc1ccc(C(=O)OC2CN3CCC2CC3)cc1` (centres undefined), the inhibition is inactive: 0.22%.

For the compound `Cc1nn(-c2ccccc2)c2c1P(=O)(N1CCOCC1)N(C)C(c1ccccc1)=N2` (centres undefined), the inhibition was inactive: -0.42%.

Consider `CCCC1OP(=O)(Nc2ccccc2)OCC1CC` (centres undefined), for which the inhibition is inactive: -0.45%.

Consider `O=C(/C=C/c1ccccc1)OC1CN2CCC1CC2` (centres undefined), for which the inhibition is inactive: 0.13%.

On to `CN(C)C1(CNC(=O)c2ccc(S(C)(=O)=O)cc2)CCCCC1`, for which the inhibition was inactive: -0.17%.

As to `COc1ccccc1CNC(=O)COC(=O)C(O)(c1ccccc1)c1ccccc1`, the inhibition is inactive: 2.24%.

Take `CC1(CBr)Cn2c(nc3ccccc3c2=O)S1` (centres undefined): the inhibition was inactive: -0.44%.

Turning to `CN(C(=O)Cc1ccc(Cl)c(Cl)c1)C1CCCC[C@@H]1N1CCCC1` (some centres undefined), the inhibition is inactive: 0.58%.

With `CC(C)/C=N\N=C(\N)N[N+](=O)[O-]`, the inhibition was inactive: -0.05%.

`CN(C(=O)Cc1ccc(Cl)c(Cl)c1)[C@@H]1CCCC[C@H]1N1CCCC1`: the inhibition was inactive: -0.71%.

Take `CN(CCCl)Cc1cc(Cl)c(NC2=NCCN2)c(Cl)c1`: the inhibition was inactive: 0.18%.

As for `CCOP(=O)(Nc1ccc(C)cn1)OCC`, the inhibition is inactive: -0.37%.

On to `CCOP(=O)(NC(=NC(C)c1ccccc1)NC(C)c1ccccc1)OCC` (centres undefined), for which the inhibition was inactive: 0.35%.

With `O=P1(Nc2ccccn2)COc2ccccc2OC1`, the inhibition was inactive: 0.34%.

For the compound `CCC1=CC2Cc3nc4ccc(Cl)cc4c(N)c3C(C1)C2` (centres undefined), the inhibition is inactive: -0.31%.

As for `CC(C)(C)C(=O)NC(Sc1ncccn1)C(Cl)(Cl)Cl` (centres undefined), the inhibition is inactive: 0.19%.

As to `O=P1(N(CCCl)CCCl)NCCC(C(F)(F)F)O1` (centres undefined), the inhibition was inactive: 0.44%.

With `Clc1n[nH]nc1-c1nn[nH][15n]1`, the inhibition was inactive: 0.05%.

For `CCCOP(=S)(Nc1nc(N)cc(=O)[nH]1)OCCC`, the inhibition is inactive: 0.9%.

Consider `Nc1cccc2c([As](=O)(O)O)cccc12`, for which the inhibition is inactive: -0.11%.

Take `Cc1ccc(NCCc2c([N+](=O)[O-])cc([N+](=O)[O-])cc2[N+](=O)[O-])cc1`: the inhibition is inactive: -1.26%.

Regarding `CCOP(=O)(Nc1cccc2ccccc12)OCC`, the inhibition was inactive: 0.34%.

Consider `COc1cc(C2NCCC3(OCCO3)C2(C)C)cc(OC)c1OC` (centres undefined), for which the inhibition is inactive: 0.39%.

As to `CS(=O)(=O)c1ccc(Cl)c(NC(=O)COC(=O)C(O)(c2ccccc2)c2ccccc2)c1`, the inhibition is inactive: 0.66%.

For the compound `COc1cc(C(=O)NCC2(N3CCOCC3)CCCCC2)cc(Cl)c1OC(C)C`, the inhibition is inactive: 0.51%.

With `O=[As](O)(O)c1cccnc1`, the inhibition was inactive: -0.44%.

Take `O=C(OC1CN2CCC1CC2)c1ccc(Cl)cc1` (centres undefined): the inhibition was inactive: 0.22%.

As for `O=[As](O)(c1cccc(O)c1)c1cccc(O)c1`, the inhibition is inactive: -0.3%.

In the case of `Cc1cccc(OCC(=O)OC2CN3CCC2CC3)c1` (centres undefined), the inhibition was inactive: -0.01%.

Consider `NC(=O)Nc1ccc([As](=O)(O)O)cc1`, for which the inhibition is inactive: 0.14%.

`CN(C(=O)Cc1ccc(Cl)c(Cl)c1)[C@H]1CC[C@@]2(CCCO2)C[C@@H]1N1CCCC1`: the inhibition is inactive: 0.68%.

With `CN(C)C(=O)c1cc([N+](=O)[O-])cc2c1-c1c(cc([N+](=O)[O-])cc1[N+](=O)[O-])C2=O`, the inhibition was inactive: -1.91%.

Consider `O=[N+]([O-])c1ccc2c(c1)nnn2O`, for which the inhibition is inactive: 0.55%.

For `CCOP1(=S)c2c(C)nn(CCC#N)c2N=C(c2ccc(F)cc2)N1C` (centres undefined), the inhibition is inactive: 0.18%.

As for `CN(C(=O)Cc1ccccc1)[C@@H]1CC[C@]2(CCCO2)C[C@H]1N1CCCC1`, the inhibition was inactive: 0.11%.

On to `N#CCCN(C(=O)COC(=O)C(O)(c1ccccc1)c1ccccc1)c1ccc(F)cc1`, for which the inhibition is inactive: 1.21%.

With `O=P(Nc1nccs1)(Oc1ccccc1)Oc1ccccc1`, the inhibition is inactive: -0.28%.

As for `CCOP1(=S)c2c(C)nn(CCC#N)c2N=C(c2ccccc2F)N1C` (centres undefined), the inhibition was inactive: 0.64%.

As for `Nc1ccccc1[As](=O)(O)c1ccccc1`, the inhibition was inactive: -0.52%.

`O=C(O)COc1ccc([As](=O)(O)O)cc1[N+](=O)[O-]`: the inhibition is inactive: -0.49%.
